Assay results reported in patent US20240100125A1 (ENYO PHARMA, priority 2021, published 2024).

Tests used:
[1] = test system: HBV infected primary human hepatocytes (PHH); test: HBV replication in infected primary human hepatocytes (PHH), FXR agonist +/- IFN-alpha; type: cell-based; settings: treated day 4 to 10 post-infection, harvested day 10, GW4064 1 or 10 uM, IFN-alpha 100 IU/mL
Method: FIG. 3. […] Freshly prepared and seeded PHH were infected with HBV at a multiplicity of infection of 250 GE/cell. From day 4 to 10 post-infection, cells were treated with […], +/−IFN-alpha at 100 IU/mL, or vehicle (NT), or IFN-alpha at 100 IU/mL alone. Cells and supernatants were harvested at day 10 for intracellular HBV RNA, viremia, and secreted antigens (HBsAg and HBeAg) quantification. Results are the mean+/−SD of one experiment performed with three biological replicates.
FIG. 4. […] Freshly prepared and seeded PHH were infected with HBV at a multiplicity of infection of 250 GE/cell. From day 4 to 10 post-infection, cells were treated with Vonafexor at 10 uM, or Nidufexor at 10 uM, or Tropifexor at 1 uM, or OCA at 10 uM, or GW4064 at 10 uM, +/−IFN-alpha (IFN) at 100 IU/mL, or vehicle, or IFN-alpha at 100 IU/mL alone. Supernatants were harvested at day 10 for secreted HBs antigen (HBsAg) quantification. Results are the mean+/−SEM of five experiments performed with three replicates.
Supernatants containing HBV particles were clarified (0.45 μm filter) and concentrated with 8% PEG 8000 (Sigma-Aldrich).
HBV DNA was quantified using the AmpliPrep/COBAS® TaqMan® HBV Test (Roche).
HBs and HBe antigens secreted in cells supernatant were quantified, after required dilutions, with Autobio kits (AutoBio, China) according to manufacturer's protocol.
Total RNA was prepared using NucleoSpin RNA Plus (Macherey-Nagel). After DNA digestion with TURBO DNase (Ambion), maximum 1000 ng RNA were reverse-transcribed using High-Capacity RNA-to-cDNA kit (Thermo Fisher Scientific). […] All assays were performed in triplicate.
HBs antigen secreted in cells supernatant were quantified, after required dilutions, with Autobio kits (AutoBio, China) according to manufacturer's protocol.
PHH are naturally susceptible to infection with HBV virions produced in vitro, leading to very high levels of replication of the virus.

HBV = test: 4-week treatment course in HBV chronically infected patients: HBV replication markers (pgRNA, HBcrAg, HBsAg); type: in vivo, human; settings: change from baseline at day 29; Placebo + weekly sub-cutaneous Peg-IFN

Substance	HBeAg secretion [1]	HBsAg secretion [1]	intracellular HBV RNA level [1]	viremia [1]	HBVpgRNA Mean (HBV) [Log10 Copies mL]	HBcrAg Mean (HBV) [Log10 IU mL]
IFN-α: Interferon alpha-2 (ROFERON-A) purchased from Roche	able to reduce	almost no effect	almost no effect	able to reduce		
Placebo + Peg-IFN: pegylated IFNα2a, weekly sub-cutaneous injections, given with placebo					−0.2	−0.4
